Data as given in BindingDB's records for doi:10.1124/jpet.105.087965 (Vrije Universiteit Amsterdam, 2005).

Amino acid sequences for entries named in this document (tags omitted). A change or cut given only in a name is not applied to a line headed by its entry.
UniProt Q9Y5N1: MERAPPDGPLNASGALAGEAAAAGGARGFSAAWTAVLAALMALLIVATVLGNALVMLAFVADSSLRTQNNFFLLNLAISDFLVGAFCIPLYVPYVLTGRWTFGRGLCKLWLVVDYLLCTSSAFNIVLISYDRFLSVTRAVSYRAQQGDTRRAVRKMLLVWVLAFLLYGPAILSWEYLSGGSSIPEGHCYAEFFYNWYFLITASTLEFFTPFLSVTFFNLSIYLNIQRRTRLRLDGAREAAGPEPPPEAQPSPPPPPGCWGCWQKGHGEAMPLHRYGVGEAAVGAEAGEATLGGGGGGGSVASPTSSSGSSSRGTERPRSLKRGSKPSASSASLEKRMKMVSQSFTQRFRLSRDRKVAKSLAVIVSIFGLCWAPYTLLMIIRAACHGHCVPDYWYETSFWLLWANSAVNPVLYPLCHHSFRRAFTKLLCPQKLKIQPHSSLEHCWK

Biological target: Histamine H3 receptor (Homo sapiens, UniProt Q9Y5N1)
Test: Ligand displacement assays were performed on The SK-N-MC/hH3R cell homogenates. Retained radioactivity was determined by liquid scintillation counting. The Ki values were calculated based on an experimentally determined appropriate Kd value according to Cheng and Prusoff.

| SMILES | Ki |
| --- | --- |
| NC(=NCc1ccc(Cl)cc1)SCCCc1cnc[nH]1 [VUF 9153] | 3 nM |
| NCCCCCc1c[nH]cn1 [5-(1H-imidazol-5-yl)pentan-1-amine] | 5 nM |
